Source: patent US20080044491A1, “METAL-CONTAINING FORMULATIONS AND METHODS OF USE” (priority 2006, published 2008)

Assay: Compatibility of nanocrystalline silver with excipients
Type: physicochemical
Details: 10% aqueous solution of excipient with nanocrystalline silver, glass vial, 40° C. overnight

Hexylene glycol
Reaction with nanocrystalline silver: Grey - no discoloration
